{"source": "PubChem BioAssay AID602163", "about": "(The Scripps Research Institute Molecular Screening Center, 2012)", "note": "The list shows a part of the results, in another mix than the full data. Calls of active or inactive are those of the source. Cut-off read from the data, not from the text of the source: active = activation above about 7.5%; inactive = the rest.", "data": [{"test_system": "Methionine sulfoxide reductase A (Bos taurus)", "assay": "bovine MsrA enzyme activators, primary screen, biochemical, absorbance, HTS (AID 602163);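 note: 0% = vehicle and 100% = reference activator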", "settings": "purified bovine MsrA, absorbance read-out; at 10.6 µM; stronger effect = higher value", "values": [{"smiles": "CC1=C2N=C(C=C3N=C(C(C)=C4[N-][C@@](C)([C@@H]5N=C1[C@](C)(CCC(=O)NC[C@@H](C)OP(=O)([O-])O[C@H]1[C@@H](O)[C@@H](n6cnc7cc(C)c(C)cc76)O[C@@H]1CO)[C@H]5CC(N)=O)[C@@](C)(CC(N)=O)[C@@H]4CCC(N)=O)[C@@](C)(CC(N)=O)[C@@H]3CCC(N)=O)C(C)(C)[C@@H]2CCC(N)=O.[C-]#N.[Co+3]", "activation": "inactive: -4.37%"}]}]}
